According to US9116112B2, “UV protective skin treatment compositions and screening methods” (JR Chem LLC, priority 2011, dated 2015):
Only a part of the results on these compounds is given; other tests are left out.

Assay: Briggs-Rauscher Oscillation Reaction Method (BROM) antioxidant capacity
Format: biochemical
Conditions: Table 3, solvent Water

Triethanolamine Salicylate
Result [s/μg] (BROM by Strength): No clear
